Reference: patent US20250314640A1, “SYSTEMS AND METHODS FOR HIGH THROUGHPUT SINGLE MOLECULE TRACKING IN LIVING CELLS” (EIKON THERAPEUTICS, INC., priority 2022, published 2025)

Protein sequences, listed by entry. Tags and fused reporters are not part of them.
UniProt P03372, whole entry: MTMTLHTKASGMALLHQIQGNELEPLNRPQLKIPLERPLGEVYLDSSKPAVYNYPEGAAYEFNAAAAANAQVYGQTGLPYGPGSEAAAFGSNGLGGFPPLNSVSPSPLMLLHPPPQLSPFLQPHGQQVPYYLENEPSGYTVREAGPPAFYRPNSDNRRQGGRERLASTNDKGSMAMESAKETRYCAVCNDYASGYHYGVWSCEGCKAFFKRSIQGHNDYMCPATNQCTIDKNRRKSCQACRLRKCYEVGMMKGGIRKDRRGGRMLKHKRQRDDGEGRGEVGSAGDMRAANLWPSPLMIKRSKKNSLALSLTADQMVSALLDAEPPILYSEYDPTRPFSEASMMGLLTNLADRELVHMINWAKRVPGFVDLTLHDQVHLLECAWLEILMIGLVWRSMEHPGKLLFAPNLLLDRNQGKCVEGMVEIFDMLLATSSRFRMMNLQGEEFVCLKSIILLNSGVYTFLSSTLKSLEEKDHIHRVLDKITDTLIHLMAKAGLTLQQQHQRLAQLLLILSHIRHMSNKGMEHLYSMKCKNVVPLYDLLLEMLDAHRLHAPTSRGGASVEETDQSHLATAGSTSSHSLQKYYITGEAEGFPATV

Key:
ER = ER (Homo sapiens, UniProt P03372); test: residence time imaging of ER (track length survival); type: cell-based; set-up: expressed in transfected cells; details: track length distribution, long frame exposures; versus DMSO
[1] = biological target: T1, progesterone receptor (PR) (Homo sapiens, UniProt P06401); test: htSMT of Halo-PR in U2OS cells; type: cell-based; details: 1 μM antagonist, absence or presence of cognate agonist; FIG. 34B
T1 sequence (P06401 1-933): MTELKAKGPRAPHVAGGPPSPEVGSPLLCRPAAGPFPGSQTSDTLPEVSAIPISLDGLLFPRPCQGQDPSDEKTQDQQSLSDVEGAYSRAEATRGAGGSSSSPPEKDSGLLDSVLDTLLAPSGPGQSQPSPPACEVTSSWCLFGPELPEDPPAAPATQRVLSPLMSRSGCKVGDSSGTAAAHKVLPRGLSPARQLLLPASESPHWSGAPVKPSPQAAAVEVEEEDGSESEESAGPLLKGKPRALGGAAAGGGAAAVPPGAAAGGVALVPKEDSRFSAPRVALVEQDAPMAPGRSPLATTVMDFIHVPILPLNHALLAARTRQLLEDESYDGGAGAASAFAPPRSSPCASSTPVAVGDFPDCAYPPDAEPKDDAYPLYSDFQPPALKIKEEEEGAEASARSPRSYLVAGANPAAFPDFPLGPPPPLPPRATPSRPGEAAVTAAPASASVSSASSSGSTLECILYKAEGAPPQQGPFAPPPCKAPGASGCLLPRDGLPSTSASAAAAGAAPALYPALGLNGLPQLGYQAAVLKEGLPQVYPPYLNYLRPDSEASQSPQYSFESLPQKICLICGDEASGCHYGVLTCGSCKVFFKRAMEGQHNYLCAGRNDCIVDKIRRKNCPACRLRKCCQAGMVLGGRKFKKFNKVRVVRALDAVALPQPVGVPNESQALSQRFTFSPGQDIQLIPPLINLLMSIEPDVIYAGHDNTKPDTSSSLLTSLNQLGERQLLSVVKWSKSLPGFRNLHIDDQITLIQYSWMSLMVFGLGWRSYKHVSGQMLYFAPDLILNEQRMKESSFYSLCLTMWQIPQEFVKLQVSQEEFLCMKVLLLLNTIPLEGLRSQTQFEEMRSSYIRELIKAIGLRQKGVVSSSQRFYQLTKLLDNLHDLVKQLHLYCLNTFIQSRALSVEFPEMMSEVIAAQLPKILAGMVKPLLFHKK

change in PR chromatin binding (fbound) [1]	Compound	binding times (relative ER residence times) (ER)
–	C[C@]12CC[C@@H]3c4ccc(O)cc4C[C@@H](CCCCCCCCC[S+]([O-])CCCC(F)(F)C(F)(F)F)[C@H]3[C@@H]1CC[C@@H]2O (some centres unmarked) [fulvestrant]	longer binding times compared with other ER modulators
behaves similarly to ER antagonists	CC#C[C@]1(O)CC[C@H]2[C@@H]3CCC4=CC(=O)CCC4=C3[C@@H](c3ccc(N(C)C)cc3)C[C@@]21C [mifepristone]	–
